Yeast mating assay 1: variants of the scFv Ab-14

The measurements come from Engelhart et al. 2022 (doi:10.1038/s41597-022-01779-4) through the FLAb antibody collection.

Binding partner: SARS-CoV-2 spike HR2 peptide, sequence PDVDLGDISGINAS.

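The starting antibody came from a phage panning campaign against this peptide. In library AAYL50, one, two or three CDR residues were substituted; doubles and triples were drawn at random. The scFvs were displayed on barcoded MATa yeast, the peptide on MATalpha yeast. Pairs that bind mate more often; barcode pairs of the diploids are counted by sequencing. A regression on co-assayed BCL2-family reference pairs converts the normalised counts of each replicate to an apparent Kd. Mating was done three times.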

Parent: Ab-14, a human scFv built as VH, the linker GGGGSGGGGSGGGGS, VL. Only the CDRs of the light chain vary.
VH: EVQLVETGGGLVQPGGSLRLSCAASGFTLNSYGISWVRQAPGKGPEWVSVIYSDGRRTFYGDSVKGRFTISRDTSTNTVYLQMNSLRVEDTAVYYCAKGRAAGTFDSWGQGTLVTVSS
VL: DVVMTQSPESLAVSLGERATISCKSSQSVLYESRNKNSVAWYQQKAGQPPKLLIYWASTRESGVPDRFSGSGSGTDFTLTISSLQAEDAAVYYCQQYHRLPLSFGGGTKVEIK

The whole VL of each variant is written out.
All variants listed here change R99 of the VL, counted from its first residue.
Values are apparent Kd, the geometric mean of the replicates that gave a signal; lower means stronger binding.
An entry "nd" has no value in the source: the pair was not observed among the diploids in any replicate. This suggests poor binding but is not conclusive.

With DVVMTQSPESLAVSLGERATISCKSSQSVLYESRNKNSPAWYQQKAGQPPKLLIYWASTRESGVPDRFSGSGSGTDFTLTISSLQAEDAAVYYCQQYHTLPLLFGGGTKVEIK the result was nd (0 of 3 replicates). Variant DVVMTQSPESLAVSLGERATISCKSSQSVLYESRNKNSVAWYQQKAGQPPKLLIYWASTRESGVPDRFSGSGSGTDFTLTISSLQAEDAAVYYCQQYHYLPLSFGGGTKVEIK showed 610 nM (3 of 3 replicates). Variant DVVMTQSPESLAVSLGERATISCKSSYSVLYESRNKNSVAWYQQKAGQPPKLLIYWASTRESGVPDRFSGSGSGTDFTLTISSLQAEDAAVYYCQEYHNLPLSFGGGTKVEIK gave nd (0 of 3 replicates). Variant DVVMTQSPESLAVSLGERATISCKSSQSVLYESRNKNSVAWYQQKAGQPPKLLIYWASTAESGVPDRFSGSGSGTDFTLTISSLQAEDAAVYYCQQYHGLYLSFGGGTKVEIK gave nd (0 of 3 replicates). For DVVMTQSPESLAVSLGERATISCKSSQSVLYESRNKNSVAWYQQKAGQPPKLLIYWASTRESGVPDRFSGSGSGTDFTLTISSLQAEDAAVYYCQQYCCIPLSFGGGTKVEIK, the assay gave 14 µM (2 of 3 replicates). With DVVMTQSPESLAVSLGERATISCKSSQSVLYDSRNKNSVAWYQQKAGQPPKLLIYWASTRESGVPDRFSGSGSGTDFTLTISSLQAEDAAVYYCQQYPALPLSFGGGTKVEIK the result was 14 µM (1 of 3 replicates). Variant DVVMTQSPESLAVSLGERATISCKSSKSVLYESCNKNSVAWYQQKAGQPPKLLIYWASTRESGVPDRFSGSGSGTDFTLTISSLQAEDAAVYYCQQYHILPLSFGGGTKVEIK showed nd (0 of 3 replicates). Variant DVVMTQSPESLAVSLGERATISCKSSQSTLVESRNKNSVAWYQQKAGQPPKLLIYWASTRESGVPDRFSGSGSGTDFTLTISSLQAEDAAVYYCQQYHHLPLSFGGGTKVEIK showed 7.8 nM (3 of 3 replicates). Variant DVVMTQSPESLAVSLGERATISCESSQGVLYESRNKNSVAWYQQKAGQPPKLLIYWASTRESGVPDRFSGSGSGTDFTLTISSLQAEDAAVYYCQQYHELPLSFGGGTKVEIK gave 4.3 nM (3 of 3 replicates).

With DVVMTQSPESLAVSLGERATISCKSSQSVLYESRNKNSVAWYQQKAGQPPKLLIYWASYRESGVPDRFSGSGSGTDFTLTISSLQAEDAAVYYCQQYHFLNLSFGGGTKVEIK the result was 15 nM (3 of 3 replicates). Variant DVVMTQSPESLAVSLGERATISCKSSQSALYESRNKNSVAWYQQKAGQPPKLLIYKASTRESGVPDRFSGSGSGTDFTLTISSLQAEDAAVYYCQQYHLLPLSFGGGTKVEIK showed 42 nM (3 of 3 replicates). For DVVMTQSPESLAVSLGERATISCKSSWSVLYESRNKNSVAWYQQKAGQPPKLLIYWASTKESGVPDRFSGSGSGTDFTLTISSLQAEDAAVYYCQQYHPLPLSFGGGTKVEIK, the assay gave 290 nM (3 of 3 replicates). With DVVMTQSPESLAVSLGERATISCKSSQSVLYESRNKNSVAWYQQKAGQPPKLLIYWASTRESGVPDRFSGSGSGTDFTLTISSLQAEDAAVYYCQDYHYLPNSFGGGTKVEIK the result was 58 nM (3 of 3 replicates). For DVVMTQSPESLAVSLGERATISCKSSQSFLFESRNKNSVAWYQQKAGQPPKLLIYWASTRESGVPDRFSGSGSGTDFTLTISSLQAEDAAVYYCQQYHNLPLSFGGGTKVEIK, the assay gave 28 nM (3 of 3 replicates). For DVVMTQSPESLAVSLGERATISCKSSQSVLMESRNKNSVAWYQQKAGQPPKLLIYWASTRESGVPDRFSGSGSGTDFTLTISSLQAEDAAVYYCLQYHHLPLSFGGGTKVEIK, the assay gave 21 µM (2 of 3 replicates). Variant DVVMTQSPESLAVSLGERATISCKSSQSVLYESRNKNSVAWYQQKAGQPPKLLIYWASTRYSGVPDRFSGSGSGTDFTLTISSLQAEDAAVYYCQEYHDLPLSFGGGTKVEIK showed 31 µM (1 of 3 replicates). Variant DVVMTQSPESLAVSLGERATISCKSSQSVLYESRNKNSVAWYQQKAGQPPKLLIYWISTRESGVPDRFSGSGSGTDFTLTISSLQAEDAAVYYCQMYHILPLSFGGGTKVEIK showed 2.9 µM (2 of 3 replicates).

The first 2 entries again:

VL,Kd (apparent),seen in
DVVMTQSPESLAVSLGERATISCKSSQSVLYESRNKNSPAWYQQKAGQPPKLLIYWASTRESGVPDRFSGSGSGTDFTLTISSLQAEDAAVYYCQQYHTLPLLFGGGTKVEIK,nd,0/3
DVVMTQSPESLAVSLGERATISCKSSQSVLYESRNKNSVAWYQQKAGQPPKLLIYWASTRESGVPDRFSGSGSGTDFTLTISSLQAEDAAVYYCQQYHYLPLSFGGGTKVEIK,610 nM,3/3

Nonspecific signal, from three strains lacking the peptide, appeared in 18% of pairings of library AAYL50, centred on 15 µM (5% of these signals below 970 nM); values are not corrected for it.
Parent in this assay: reference entry 4.4 nM, copy in this library 48 nM.